From PubChem BioAssay (NCI)
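Values below derive from 48-hour exposures of cells grown in 96-well plates, with endpoints linearly interpolated between the two concentrations bracketing the appropriate inhibition level. The concentration for 50% growth inhibition is given as GI50. TGI: total growth inhibition.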

Columns and labels:
Assay in all cases: DTP human tumour cell line panel, 48 h
786-0 renal = tested on: 786-0 renal
A498 renal = tested on: A498 renal
A549 NSCLC = tested on: A549 NSCLC
ACHN renal = tested on: ACHN renal
BT-549 breast = tested on: BT-549 breast
CAKI-1 renal = tested on: CAKI-1 renal
CCRF-CEM leukemia = tested on: CCRF-CEM leukemia
COLO 205 colon = tested on: COLO 205 colon
DU-145 prostate = tested on: DU-145 prostate
EKVX NSCLC = tested on: EKVX NSCLC
HCC-2998 colon = tested on: HCC-2998 colon
HCT-116 colon = tested on: HCT-116 colon
HCT-15 colon = tested on: HCT-15 colon
HL-60(TB) leukemia = tested on: HL-60(TB) leukemia
HOP-62 NSCLC = tested on: HOP-62 NSCLC
HOP-92 NSCLC = tested on: HOP-92 NSCLC
HS 578T breast = tested on: HS 578T breast
HT29 colon = tested on: HT29 colon
IGROV1 ovarian = tested on: IGROV1 ovarian
KM12 colon = tested on: KM12 colon
LOX IMVI melanoma = tested on: LOX IMVI melanoma
M14 melanoma = tested on: M14 melanoma
MALME-3M melanoma = tested on: MALME-3M melanoma
MCF7 breast = tested on: MCF7 breast
MDA-MB-231 breast = tested on: MDA-MB-231 breast
MDA-MB-435 = tested on: MDA-MB-435
NCI-H226 lung = tested on: NCI-H226 lung
NCI-H23 lung = tested on: NCI-H23 lung
NCI-H460 lung = tested on: NCI-H460 lung
NCI/ADR-RES ovarian = tested on: NCI/ADR-RES ovarian
OVCAR-3 ovarian = tested on: OVCAR-3 ovarian
OVCAR-4 ovarian = tested on: OVCAR-4 ovarian
OVCAR-5 ovarian = tested on: OVCAR-5 ovarian
OVCAR-8 ovarian = tested on: OVCAR-8 ovarian
PC-3 prostate = tested on: PC-3 prostate
RXF 393 renal = tested on: RXF 393 renal
SF-268 CNS = tested on: SF-268 CNS
SF-295 CNS = tested on: SF-295 CNS
SF-539 CNS = tested on: SF-539 CNS
SK-MEL-2 melanoma = tested on: SK-MEL-2 melanoma
SK-MEL-28 melanoma = tested on: SK-MEL-28 melanoma
SK-MEL-5 melanoma = tested on: SK-MEL-5 melanoma
SK-OV-3 ovarian = tested on: SK-OV-3 ovarian
SNB-19 CNS = tested on: SNB-19 CNS
SNB-75 CNS = tested on: SNB-75 CNS
SW-620 colon = tested on: SW-620 colon
T-47D breast = tested on: T-47D breast
TK-10 renal = tested on: TK-10 renal
U251 CNS = tested on: U251 CNS
UACC-257 melanoma = tested on: UACC-257 melanoma
UACC-62 melanoma = tested on: UACC-62 melanoma
UO-31 renal = tested on: UO-31 renal

In the case of `CCOP(=O)(Nc1ccccc1CC)OCC`, the GI50 (786-0 renal) is reported as greater than 100 µM, the TGI (786-0 renal) is reported as greater than 100 µM and the GI50 (A498 renal) is reported as greater than 100 µM. For the same compound, the TGI (A498 renal) was greater than 100 µM, the GI50 (A549 NSCLC) was greater than 100 µM and the TGI (A549 NSCLC) was greater than 100 µM. It also gave a GI50 (ACHN renal) greater than 100 µM, a TGI (ACHN renal) greater than 100 µM and a GI50 (BT-549 breast) greater than 100 µM. The TGI (BT-549 breast) was greater than 100 µM, the GI50 (CAKI-1 renal) was greater than 100 µM and the TGI (CAKI-1 renal) was greater than 100 µM. The GI50 (CCRF-CEM leukemia) was greater than 100 µM, the TGI (CCRF-CEM leukemia) was greater than 100 µM and the GI50 (COLO 205 colon) was greater than 100 µM. It also gave a TGI (COLO 205 colon) greater than 100 µM, a GI50 (DU-145 prostate) greater than 100 µM and a TGI (DU-145 prostate) greater than 100 µM. For the same compound, the GI50 (EKVX NSCLC) was greater than 100 µM, the TGI (EKVX NSCLC) was greater than 100 µM and the GI50 (HCC-2998 colon) was greater than 100 µM. The TGI (HCC-2998 colon) was greater than 100 µM, the GI50 (HCT-116 colon) was greater than 100 µM and the TGI (HCT-116 colon) was greater than 100 µM. For the same compound, the GI50 (HCT-15 colon) was greater than 100 µM, the TGI (HCT-15 colon) was greater than 100 µM and the GI50 (HL-60(TB) leukemia) was 64.2 µM. It also gave a TGI (HL-60(TB) leukemia) greater than 100 µM, a GI50 (HOP-62 NSCLC) greater than 100 µM and a TGI (HOP-62 NSCLC) greater than 100 µM. For the same compound, the GI50 (HOP-92 NSCLC) was greater than 100 µM, the TGI (HOP-92 NSCLC) was greater than 100 µM and the GI50 (HS 578T breast) was greater than 100 µM. For the same compound, the TGI (HS 578T breast) was greater than 100 µM, the GI50 (HT29 colon) was greater than 100 µM and the TGI (HT29 colon) was greater than 100 µM. For the same compound, the GI50 (IGROV1 ovarian) was greater than 100 µM, the TGI (IGROV1 ovarian) was greater than 100 µM and the GI50 (KM12 colon) was greater than 100 µM. For the same compound, the TGI (KM12 colon) was greater than 100 µM, the GI50 (LOX IMVI melanoma) was greater than 100 µM and the TGI (LOX IMVI melanoma) was greater than 100 µM. For the same compound, the GI50 (M14 melanoma) was greater than 100 µM, the TGI (M14 melanoma) was greater than 100 µM and the GI50 (MALME-3M melanoma) was greater than 100 µM. It also gave a TGI (MALME-3M melanoma) greater than 100 µM, a GI50 (MCF7 breast) greater than 100 µM and a TGI (MCF7 breast) greater than 100 µM. For the same compound, the GI50 (MDA-MB-231 breast) was greater than 100 µM, the TGI (MDA-MB-231 breast) was greater than 100 µM and the GI50 (MDA-MB-435) was greater than 100 µM. The TGI (MDA-MB-435) was greater than 100 µM, the GI50 (NCI-H226 lung) was greater than 100 µM and the TGI (NCI-H226 lung) was greater than 100 µM. For the same compound, the GI50 (NCI-H23 lung) was greater than 100 µM, the TGI (NCI-H23 lung) was greater than 100 µM and the GI50 (NCI-H460 lung) was greater than 100 µM. It also gave a TGI (NCI-H460 lung) greater than 100 µM, a GI50 (NCI/ADR-RES ovarian) greater than 100 µM and a TGI (NCI/ADR-RES ovarian) greater than 100 µM. It also gave a GI50 (OVCAR-3 ovarian) greater than 100 µM, a TGI (OVCAR-3 ovarian) greater than 100 µM and a GI50 (OVCAR-4 ovarian) greater than 100 µM. For the same compound, the TGI (OVCAR-4 ovarian) was greater than 100 µM, the GI50 (OVCAR-5 ovarian) was greater than 100 µM and the TGI (OVCAR-5 ovarian) was greater than 100 µM. The GI50 (OVCAR-8 ovarian) was greater than 100 µM, the TGI (OVCAR-8 ovarian) was greater than 100 µM and the GI50 (PC-3 prostate) was greater than 100 µM. The TGI (PC-3 prostate) was greater than 100 µM, the GI50 (RXF 393 renal) was greater than 100 µM and the TGI (RXF 393 renal) was greater than 100 µM. For the same compound, the GI50 (SF-268 CNS) was greater than 100 µM, the TGI (SF-268 CNS) was greater than 100 µM and the GI50 (SF-295 CNS) was greater than 100 µM. For the same compound, the TGI (SF-295 CNS) was greater than 100 µM, the GI50 (SF-539 CNS) was greater than 100 µM and the TGI (SF-539 CNS) was greater than 100 µM. For the same compound, the GI50 (SK-MEL-2 melanoma) was greater than 100 µM, the TGI (SK-MEL-2 melanoma) was greater than 100 µM and the GI50 (SK-MEL-28 melanoma) was greater than 100 µM. The TGI (SK-MEL-28 melanoma) was greater than 100 µM, the GI50 (SK-MEL-5 melanoma) was greater than 100 µM and the TGI (SK-MEL-5 melanoma) was greater than 100 µM. For the same compound, the GI50 (SK-OV-3 ovarian) was greater than 100 µM, the TGI (SK-OV-3 ovarian) was greater than 100 µM and the GI50 (SNB-19 CNS) was 42.2 µM. It also gave a TGI (SNB-19 CNS) greater than 100 µM, a GI50 (SNB-75 CNS) greater than 100 µM and a TGI (SNB-75 CNS) greater than 100 µM. The GI50 (SW-620 colon) was greater than 100 µM, the TGI (SW-620 colon) was greater than 100 µM and the GI50 (T-47D breast) was greater than 100 µM. It also gave a TGI (T-47D breast) greater than 100 µM, a GI50 (TK-10 renal) greater than 100 µM and a TGI (TK-10 renal) greater than 100 µM. The GI50 (U251 CNS) was greater than 100 µM, the TGI (U251 CNS) was greater than 100 µM and the GI50 (UACC-257 melanoma) was greater than 100 µM. For the same compound, the TGI (UACC-257 melanoma) was greater than 100 µM, the GI50 (UACC-62 melanoma) was greater than 100 µM and the TGI (UACC-62 melanoma) was greater than 100 µM. The GI50 (UO-31 renal) was greater than 100 µM and the TGI (UO-31 renal) was greater than 100 µM.
